The target in the test is Adenosine receptor A3 (Homo sapiens, UniProt P0DMS8). The test can be described thus: Positive allosteric modulator activity in wild type human A3AR opioid receptor stably expressed in human HEK293 cell membrane assessed as increase in CI-IB-MECA induced [35S]GTPGAgammaS binding to receptor at 10 uM preincubated for 1 hrs with CI-IB-MECA further incubated with [35S]GTPGAgammaS for …. The test is classed as cell membranes. Particulars: filed as positive allosteric modulator, time 3.0 hrs.

Protein sequences, listed by entry. Tags and fused reporters are not part of them.
UniProt P0DMS8, whole entry: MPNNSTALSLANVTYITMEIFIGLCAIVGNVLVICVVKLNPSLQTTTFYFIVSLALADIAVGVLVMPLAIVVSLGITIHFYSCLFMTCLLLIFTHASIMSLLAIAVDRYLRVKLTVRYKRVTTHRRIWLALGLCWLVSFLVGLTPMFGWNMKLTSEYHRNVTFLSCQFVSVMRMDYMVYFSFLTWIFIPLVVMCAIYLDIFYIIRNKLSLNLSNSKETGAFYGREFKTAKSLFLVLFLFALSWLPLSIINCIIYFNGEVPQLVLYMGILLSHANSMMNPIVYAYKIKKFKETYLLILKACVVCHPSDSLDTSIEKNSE

The structures appear in SMILES notation.

`OC1CCCC(c2nc3c(Nc4ccc(Cl)c(Cl)c4)nc4ccccc4c3[nH]2)CC1` (racemic; 34): the Activity was determined as 50%.
